Results: US8231900B2
Some compounds may have been tested in ways that are not shown here.

What was measured:
[1] = beagle dogs; cited from earlier work
[2] = PK of sublingual alfentanil NanoTab (#63) vs IV alfentanil in Beagle dogs; settings: Beagle dog
[3] = PK of sublingual sufentanil NanoTab (formulation #44) vs IV sufentanil in Beagle dog model; settings: IV 5 mcg
[4] = Human clinical PK study of sublingual sufentanil NanoTabs vs IV sufentanil in healthy volunteers; settings: IV 5 mcg infusion over 10 min
[5] = PK of sublingual sufentanil solution and swallowed sufentanil NanoTab vs IV sufentanil in Beagle dogs; settings: Beagle dog; for Therapeutic Plateau Ratio (TTR): literature IV half-life 139 min
[6] = PK of sublingual fentanyl NanoTabs (#60, #62) vs IV fentanyl in Beagle dogs; settings: Beagle dog
[7] = sublingually instilled solution 5 μg

CCC(=O)N(c1ccccc1)C1(COC)CCN(CCn2nnn(CC)c2=O)CC1
published IV terminal elimination half-life [1]: 104 min | Cmax ([2]; IV 253 μg): 139.1 ± 76.4 ng/mL | AUC (Mean ± SD) ([2]; IV 253 μg alfentanil base, n=3): 15.3 ng·h/mL

CCC(=O)N(c1ccccc1)C1(COC)CCN(CCc2cccs2)CC1
Cmax [3]: 0.5367 ± 0.1861 ng/mL | Plasma Half-life [3]: 10.3 ± 4.5 min | Tmax [3]: 1.6 ± 0.6 min | AUC (Mean ± SD) ([3]; n=3): 0.211 ng·h/mL | Plasma Elimination Half-life [4]: 71.4 ± 10.8 min | AUC (hr*ng/ml) (mean ± SD) ([4]; n=12): 0.0368 ± 0.0076 ng·h/mL | Cmax ([5]; IV bolus 5 μg): 0.5367 ± 0.1861 ng/mL | Plasma Half-life ([5]; IV bolus 5 μg): 2.8 ± 0.4 min | Therapeutic Plateau Ratio (TTR) ([5]; IV bolus 5 μg, listed as IV sufentanil): 0.03 | Therapeutic Plateau Ratio (TTR) ([5]; IV bolus 5 μg, listed as Intravenous Sufentanil): 0.02 ± 0.0 | Cmax [5, 7]: 0.2364 ± 0.17 ng/mL | Plasma Half-life [5, 7]: 8.3 ± 4.5 min | Tmax [5, 7]: 4.3 ± 1.0 min | AUC (Mean ± SD) ([5]; sublingually instilled solution 5 μg, n=6): 0.0583 ng·h/mL | Therapeutic Plateau Ratio (TTR) [5, 7]: 0.06 | Therapeutic Plateau Ratio (TTR) ([5]; sublingually instilled solution 5 μg, listed as Sublingual Sufentanil solution): 0.04 ± 0.02 | F1 (%) oral (GI) bioavailability ([5]; swallowed (oral) 5 mcg NanoTab): 12%

CCC(=O)N(c1ccccc1)C1CCN(CCc2ccccc2)CC1
Cmax ([6]; IV bolus 70 μg): 7.8959 ± 6.096 ng/mL | AUC (Mean ± SD) ([6]; IV bolus 70 μg fentanyl base (Sublimaze), n=3): 3.16 ng·h/mL
